# IL2 activator: activates IL-2 in a cell-based reporter assay | activation, % (series mostly up to about 46 µM) | IL-2 activation reporter assay, cell-based qHTS; stimulated with anti-CD3/CD4/CD28 beads; in transgenic mouse T cells | AID 652025 | 360,000 tested, 0.065% active; in the data active = activation above about 50%; inconclusive = mostly about 30% to 49%; note: 0% is about no effect
#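 First, unstimulated transgenic mouse T cells were exposed to compound for 60 min. Next, anti-CD3/anti-CD4-coated beads with anti-CD28 were added. Finally, after 18 h at 37 degrees C, EGFP and DsRed were imaged.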
# Rango release inh: prevents RanGTP from dissociating the Rango-importin beta complex | O95149+P62826 | Biochemical FRET Rango-importin beta, RanGTP-induced dissociation | Potency, µM (series often up to 46.1 µM), inactives show at the top dose activity change, negative = inhibition | 340,000 tested, 0.071% active | AID 540253; calls by dose curve; note: potency is the fitted concentration of half-maximal effect; % of control where 0% means no effect; nearly all actives have a fitted effect of over 45% in size
#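 Rango/importin beta premix (0.1/0.25 uM final), PBS + 1 mM DTT + 0.02% Tween-20 + 0.1% BSA; cpd 5 min RT; FRET pre-read; + RanGTP-RCC1 (0.6 uM Ran, 2 mM GTP, 0.2 uM RCC1); 45 min RT; FRET post-read, ex 430, em 486/530 nm.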
# Rango complex inh: prevents formation of the Rango-importin beta complex. Q14974. Rango CFP/YFP FRET sensor + importin beta, 45 min. Potency, µM (highest dose often 92.2 µM), inactives show at the highest dose inhibition of complex formation. 340,000 tested, 0.031% active; calls by dose curve;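 note: potency is the fitted concentration of half-maximal effect; 0% = DMSO wells and 100% = buffer wells lacking importin beta; nearly all actives have a fitted effect of over 15% in size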
#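 FRET biosensor (snurportin 1 IBB flanked by EYFP and cerulean), 50 nM, with compound 5 min, then 0.125 microM importin beta in PBS, 1 mM DTT, 0.02% Tween-20, 0.1% BSA. CFP/YFP ratio read after 45 min at room temperature; pre-read flags interference.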
# PKM2 act: increases activity of human pyruvate kinase M2; P14618; purified PKM2, Kinase-Glo ATP luminescence, activation; response scale: 0% is enzyme alone, no compound; Potency, µM (top dose mostly 57.5 µM), without a hit: top-dose activation, most hits filed as activators; 260,000 tested, 0.34% active; AID 1631; note: potency is the fitted concentration of half-maximal effect; % is set by controls: 0 for no effect and ±100 for the full control effect; nearly all actives have a fitted effect of over 55% in size
#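 Kinase-Glo luminescence reports ATP generated from ADP (0.1 mM) and PEP (0.5 mM) by purified hPK-M2 after 1 h at room temperature, pH 7.2 imidazole buffer; intermediate enzyme activity allows detecting inhibitors and activators.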
# AT treatment: potential ataxia-telangiectasia treatments restoring KAP-1 phosphorylation; F2112 A-T fibroblasts, KAP-1 phosphorylation AlphaLISA; neocarzinostatin DNA damage 30 min before lysis; Potency, µM (doses to about 57.5 µM), without a hit: at the highest dose activation, usual class: activators; 320,000 tested, 0.19% active; note: potency is the fitted concentration of half-maximal effect; % of control where 0% means no effect; nearly all actives have a fitted effect of over 45% in size
#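 hTERT-immortalized A-T patient fibroblasts (F2112), 500 cells/well in OPTI-MEM, 1% FBS, got compounds for 60 min, then NCS for 30 min at 37C. Lysates were then assayed for phospho-KAP-1 by AlphaLISA (anti-pKAP1 donor, anti-KAP1 acceptor beads), 6 hr at 25C.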
# * = called active by the depositor; ? = inconclusive; nt = not tested or not shown; [ ] = dose if it differs, or a comment. Only some compounds are listed: those with a hit (about 0.59% of all), similar ones and a draw of the others. Unless noted, calls come from the whole dose curve; as a rule, active = well fitted activation curve with a large enough effect; inconclusive = small, poorly fitted or top-dose-only effect; inactive = no such curve, though single readings can be large or run the other way.
# Short forms – A = IL2 activator; B = Rango release inh; C = Rango complex inh; D = PKM2 act; E = AT treatment
(1) CCOc1ccc(C(=O)N2CCN(c3cccc(C)c3C)CC2)cc1
  A: 0.2	B: 10.5%	C: 2.3%	D: 14.1µM*	E: nt
(2) O=S1(=O)CC(N2CCCCC2)CN1Cc1ccc(F)cc1 (stereo unspecified)
  A: 0.0	B: nt	C: nt	D: nt	E: nt
(3) Cc1nc(-c2ccc(S(=O)(=O)Nc3cccc(Cl)c3)cc2)co1
  A: -1.0	B: -6.5%	C: -2.4%	D: 7.94µM*	E: -2.0%
(4) CC(C)(C)OC(=O)NCCC(=O)Oc1ccc2ccc(=O)oc2c1
  A: -0.5	B: 9.2µM*	C: ?	D: 0.6%	E: -2.2%
(5) CC(NC(=O)OC(C)(C)C)C(=O)Oc1ccc2ccc(=O)oc2c1 (stereo unspecified)
  A: 0.1	B: ?	C: ?	D: 1.2%	E: 8.5%
(6) O=C1CC(c2ccco2)CC2=C1C(c1ccccc1)n1nc(C(F)(F)F)nc1N2 (stereo unspecified)
  A: 2.8	B: -1.7%	C: -1.3%	D: 4.47µM*	E: nt
(7) Cc1ccc(S(=O)(=O)C[C@@H]2OC[C@H](Cc3ccccc3)N2S(=O)(=O)c2ccc(C)cc2)cc1
  A: -0.1	B: nt	C: nt	D: nt	E: nt
(8) CCOC(=O)c1ccc2cccc(C)n2c1=O
  A: -2.4	B: 11.6µM*[inhibitor]	C: ?	D: -0.5%	E: 5.6%
(9) O=C(CN1CCN(c2ccccn2)CC1)Nc1cccc(Br)c1
  A: -0.3	B: -13.9%	C: -2.3%	D: nt	E: 15.8µM*
(10) Cc1cc(C)cc(NC(=O)CN2CCN(c3ccccc3)CC2)c1
  A: 0.1	B: 12.8%	C: 2.2%	D: nt	E: 10µM*
(11) Cc1cc(C)cc(NC(=O)CN2CCN(c3ccccn3)CC2)c1
  A: 0.1	B: 8.8%	C: 0.6%	D: 0.0%	E: 0.8%
(12) O=C(CN1CCN(c2ccccn2)CC1)Nc1cccc(F)c1
  A: 0.2	B: 10.4%	C: 0.1%	D: nt	E: -1.5%
(13) CC1Cc2ccccc2N1c1ncnc2c1nnn2Cc1ccccc1Cl (stereo unspecified)
  A: -0.1	B: 18.1%	C: 3.5%	D: -1.9%	E: 0.0%
(14) Clc1ccccc1Cn1nnc2c(N3CCCC3)ncnc21
  A: -1.2	B: -4.8%	C: -3.6%	D: 15.8µM*	E: -4.6%
(15) Nc1ccc(C(=O)Oc2ccc([N+](=O)[O-])cc2)cc1
  A: 0.5	B: 1.6%	C: -0.6%	D: 39.8µM*	E: 2.7%

# Other records
# Short forms – A = IL2 activator; B = Rango release inh; C = Rango complex inh; D = PKM2 act; E = AT treatment
(16) COc1cc(S(=O)(=O)Nc2ccc(C)cc2)ccc1N=Cc1c(C)c(C#N)c(=O)n(C)c1O
  A: 447.9*	B: ?	C: ?	D: -7.5%	E: 0.2%
(17) COc1ccc(C(=O)CSc2nnc(CNC(=O)c3ccc(S(=O)(=O)N(C)C)cc3)o2)cc1
  A: 1.2	B: -0.2%	C: 0.2%	D: 2.9%	E: 5.9%
(18) O=C(OCc1ccc(F)cc1)c1cc(S(=O)(=O)N2CCCCC2)ccc1N1CCOCC1
  A: -3.7	B: ?	C: -2.3%	D: nt	E: 9.0%
(19) CCCCCCCCNC(=O)/C(C#N)=C/c1ccccc1[N+](=O)[O-]
  A: 0.7	B: -16.1%	C: ?	D: -7.0%	E: 25.1µM*
(20) Cn1cc(S(=O)(=O)Nc2ccc(OC(F)(F)F)cc2)c(=O)n(C)c1=O
  A: 0.4	B: 28.3%	C: -0.4%	D: 16.1%	E: 12.6µM*
(21) COc1ccc(NS(=O)(=O)c2cn(C)c(=O)n(C)c2=O)cc1
  A: -0.2	B: 17.2%	C: 0.1%	D: 6.6%	E: -4.5%
(22) COc1cc(CN2C[C@@H](CO)O[C@@H](n3cnc4c(N5CCOCC5)ncnc43)C2)cc(OC)c1OC
  A: -0.2	B: nt	C: nt	D: nt	E: nt
(23) CCNc1nc(Sc2ccc(C)cc2)cc(C(F)(F)F)n1
  A: -1.7	B: -8.2%	C: 0.0%	D: 4.7%	E: 31.6µM*
(24) CCNc1nc(Oc2ccc(Cl)cc2Cl)cc(C(F)(F)F)n1
  A: -2.7	B: -7.4%	C: -2.2%	D: -1.4%	E: 31.6µM*
(25) CCNc1nc(Oc2ccc(OC)cc2)cc(C(F)(F)F)n1
  A: -1.9	B: -1.0%	C: 0.5%	D: 1.7%	E: 1.4%
(26) COc1cc(NC(=O)COC(=O)CO/N=C(\C)c2ccc3c(c2)OCO3)cc(OC)c1
  A: 0.7	B: -22.6%	C: -2.4%	D: nt	E: 4.2%
(27) c1cc2c3c(cccc3c1)-c1cnccc1-2
  A: 0.5	B: -6.4%	C: 4.3%	D: nt	E: nt
(28) CCOc1ccc(CCN2C(=O)C(=O)N([C@H](CCCN(C)Cc3ccccc3)CNCc3ccccc3)C[C@@H]2C(C)C)cc1
  A: nt	B: nt	C: nt	D: 6.8%	E: 39.8µM*
(29) Cc1[nH]c(=O)c(C#N)c(C)c1CCC(=O)Nc1cc(S(C)(=O)=O)ccc1Cl
  A: -3.6	B: 0.2%	C: 0.4%	D: -4.1%	E: 10.4%
(30) CC[n+]1c(/C=C/c2c[nH]c3ccccc23)ccc2cc(C)ccc21
  A: 68.1*	B: ?	C: ?	D: -17.8%	E: -5.7%

# The list continues.
# Short forms – A = IL2 activator; B = Rango release inh; C = Rango complex inh; D = PKM2 act; E = AT treatment
(31) CCN(CC)C(=O)c1ccc(/C=C/c2c[nH]c3ccccc23)[n+](C)c1
  A: 78.6*	B: ?	C: ?	D: -10.9%	E: -4.1%
(32) CCN1/C(=C/c2ccc3cc(C)ccc3[n+]2CC)Sc2cc(C)ccc21
  A: 14.8	B: ?	C: ?	D: -13.2%	E: -0.1%
(33) Cc1ccc(C(=O)/C=C/c2c[nH]c3ccccc23)cc1
  A: -0.5	B: ?	C: ?	D: ?	E: -5.5%
(34) Cc1cccc(N(C)S(=O)(=O)c2cc3c(cc2C)n(C)c(=O)c(=O)n3C)c1
  A: 3.0	B: -17.3%	C: -2.4%	D: 10µM*	E: -2.7%
(35) Cc1cc2c(cc1S(=O)(=O)N(C)c1ccccc1)n(C)c(=O)n2C
  A: -0.5	B: -4.4%	C: 1.5%	D: 12.6µM*	E: 5.6%
(36) COc1ccc(-n2c(=S)[nH]c3ccccc3c2=S)cc1
  A: -3.4	B: -21.1%	C: 1.6%	D: nt	E: 2.82µM*
(37) O=C(Nc1cccc(NC(=O)c2cc([N+](=O)[O-])ccc2Cl)n1)c1cc([N+](=O)[O-])ccc1Cl
  A: -0.8	B: 1.0%	C: 20.6µM*	D: nt	E: nt
(38) OCC[C@@H]1C[C@H](O)[C@@H](O)[C@@]2(OCCCc3cc(Cl)ccc32)O1
  A: -0.5	B: nt	C: nt	D: nt	E: nt
(39) O=C(/C=C1\C(=O)Nc2ccccc21)/C=C1\C(=O)Nc2ccccc21
  A: -1.6	B: -23.3%	C: ?	D: 1.41µM*	E: -17.4%
(40) Cc1ccc(O)c(NC2=C(Cl)C(=O)N(Cc3ccccc3)C2=O)c1
  A: -1.7	B: -17.8%	C: 0.9%	D: 8.91µM*	E: -1.7%
(41) Cc1ccc(C(=O)N2CCCCC2)cc1NC1=C(Cl)C(=O)N(Cc2ccccc2)C1=O
  A: -0.5	B: -19.3%	C: ?	D: nt	E: -8.5%
(42) COC(=O)[C@@]12C[C@@H](CC(=O)N3CCSCC3)C(=O)N(Cc3cccc4ccccc34)C1=CCC(C)(C)C2
  A: -0.7	B: nt	C: nt	D: nt	E: nt
(43) c1ccc(OCc2nn3c(Cn4cnc5ccccc54)nnc3s2)cc1
  A: -1.5	B: 2.4%	C: 1.0%	D: 4.47µM*	E: 5.7%
(44) c1ccc2c(c1)ncn2Cc1nnc2sc(-c3ccncc3)nn12
  A: 0.6	B: -2.9%	C: -2.1%	D: 8.91µM*	E: 3.3%
(45) c1cncc(-c2nn3c(Cn4cnc5ccccc54)nnc3s2)c1
  A: -0.2	B: -5.7%	C: 0.7%	D: ?	E: 26.3%

# The listing continues.
# Short forms – A = IL2 activator; B = Rango release inh; C = Rango complex inh; D = PKM2 act; E = AT treatment
(46) CCOc1ccccc1OCc1nn2c(COc3ccccc3)nnc2s1
  A: -1.6	B: ?	C: 3.2%	D: 0.3%	E: 10.3%
(47) CC(=O)Nc1cccc(NC(=O)CSc2nc(=O)n(CCN3CCOCC3)c3c2CCC3)c1
  A: -3.1	B: 3.5%	C: -0.1%	D: nt	E: 1.5%
(48) CC(=O)Oc1ccccc1/C=C/c1nc2ccccc2c(=O)o1
  A: -0.3	B: -6.7%	C: 1.4%	D: nt	E: 1.5%
(49) O=c1oc(/C=C/c2ccc([N+](=O)[O-])s2)nc2ccccc12
  A: -1.1	B: 9.2µM*	C: ?	D: -7.8%	E: -0.1%
(50) O/N=C/c1cc(Br)cs1
  A: 0.5	B: -12.4%	C: -2.3%	D: 5.5%	E: -1.3%

# Compound activity deposited in PubChem by National Center for Advancing Translational Sciences (NCATS).
